{
  "source": "patent US10953027B2",
  "about": "“Active agents and methods of their use for the treatment of metabolic disorders and nonalcoholic fatty liver disease” (Flagship Pioneering Innovations V, Inc., priority 2018, dated 2021)",
  "key": {"[1]": {"tested_on": "Male FATZO mice", "assay": "In vivo FATZO DM2/obesity study (Example 5)", "conditions": "0.045% in diet, after 28 days; blood glucose 0-120 minutes"}, "[2]": {"tested_on": "Male DIO mice", "assay": "In vivo evaluation for glucose disposal and lipidemia in DIO mice (Example 11)", "conditions": "0.045% in HFD, OGTT day 28, glucose 2.0 g/kg PO"}},
  "data": [
    {"molecule": "CN(CCOc1ccc(CC2SC(=O)NC2=O)cc1)c1ccccn1", "note": "(centres unmarked) [Rosiglitazone, rosiglitazone, reference compound]", "values": [
      {"measurement": "OGTT (AUC)", "setting": "[1]", "result": 25222},
      {"measurement": "glucose AUC (0-120 min)", "setting": "[2]", "result": "24540.0 ± 806.3", "unit": "mg/dL/min"}
    ]}
  ]
}
